Test results published in article PMC12214610.

Chains of the proteins cited; added tags and fusions are not shown. Chains listed by the source or under a name are the forms on record and can include a tag or linker.
Serine/threonine-protein phosphatase 2A catalytic subunit alpha isoform, one chain, as listed by the source: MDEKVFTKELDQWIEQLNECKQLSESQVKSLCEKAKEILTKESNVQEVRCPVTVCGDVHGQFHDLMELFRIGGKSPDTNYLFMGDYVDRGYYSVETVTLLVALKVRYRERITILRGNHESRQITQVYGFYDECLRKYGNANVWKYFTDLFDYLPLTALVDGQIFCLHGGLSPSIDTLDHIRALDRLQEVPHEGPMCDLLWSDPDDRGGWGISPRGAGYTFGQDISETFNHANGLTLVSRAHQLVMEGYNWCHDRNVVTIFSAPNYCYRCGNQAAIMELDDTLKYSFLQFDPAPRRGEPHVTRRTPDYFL

Assays:
[1] = molecular target: T1, Serine/threonine-protein phosphatase 2A 55 kDa regulatory subunit B alpha isoform (UniProt P63151)
T1 sequence: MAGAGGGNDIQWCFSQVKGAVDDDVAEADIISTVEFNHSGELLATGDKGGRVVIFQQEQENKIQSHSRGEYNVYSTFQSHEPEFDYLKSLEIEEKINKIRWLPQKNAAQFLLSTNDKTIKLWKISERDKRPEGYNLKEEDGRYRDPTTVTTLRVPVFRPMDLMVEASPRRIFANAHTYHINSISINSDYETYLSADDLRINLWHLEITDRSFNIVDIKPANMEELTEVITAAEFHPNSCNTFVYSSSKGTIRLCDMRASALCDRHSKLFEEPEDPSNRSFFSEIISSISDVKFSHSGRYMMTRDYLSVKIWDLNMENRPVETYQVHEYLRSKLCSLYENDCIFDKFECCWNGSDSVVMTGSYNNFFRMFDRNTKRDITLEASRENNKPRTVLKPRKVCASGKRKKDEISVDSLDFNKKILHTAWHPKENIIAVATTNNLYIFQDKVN

[2] = system: Serine/threonine-protein phosphatase 2A catalytic subunit alpha isoform

Serine/threonine-protein phosphatase 2A 65 kDa regulatory subunit A alpha isoform
listed as a hit [1]: yes
listed as a hit [2]: yes
